{"source": "patent US12037644B2", "about": "“Use of FGFR mutant gene panels in identifying cancer patients that will be responsive to treatment with an FGFR inhibitor” (Janssen Pharmaceutica NV, priority 2014, dated 2024)", "conditions_in_all_cases": "Rattus norvegicus, 72 h, read-out: Stimulated Proliferation (IC50)", "key": {"[1]": {"test_system": "RK3E-Transgene BICC1 (FGFR fusion stably transfected RK3E cells)", "assay": "Drug response testing (Cell Titer-Glo proliferation), RK3E FGFR2:BICC1"}, "RK3E-Transgene FGFR2": {"test_system": "RK3E-Transgene FGFR2", "assay": "Drug response testing (Cell Titer-Glo proliferation), RK3E FGFR2"}, "[2]": {"test_system": "RK3E-Transgene AFF3 (FGFR fusion stably transfected RK3E cells)", "assay": "Drug response testing (Cell Titer-Glo proliferation), RK3E FGFR2:AFF3"}, "[3]": {"test_system": "RK3E-Transgene OFD1 (FGFR fusion stably transfected RK3E cells)", "assay": "Drug response testing (Cell Titer-Glo proliferation), RK3E FGFR2:OFD1"}, "[4]": {"test_system": "RK3E-Transgene CCDC6 (FGFR fusion stably transfected RK3E cells)", "assay": "Drug response testing (Cell Titer-Glo proliferation), RK3E FGFR2:CCDC6"}, "[5]": {"test_system": "RK3E-Transgene CASP7 (FGFR fusion stably transfected RK3E cells)", "assay": "Drug response testing (Cell Titer-Glo proliferation), RK3E FGFR2:CASP7"}}}
{"smiles": "COc1cc(CCc2cc(NC(=O)c3ccc(N4C[C@@H](C)N[C@@H](C)C4)cc3)n[nH]2)cc(OC)c1", "note": "[AZD4547, N-[5-[2-(3,5-Dimethoxyphenyl)ethyl]-2H-pyrazol-3-yl]-4-(3,5-diemthylpiperazin-1-yl)benzamide]", "values": [{"measurement": "IC50", "setting": "[1]", "value": 6.45, "unit": "nM"}, {"measurement": "IC50", "setting": "RK3E-Transgene FGFR2", "value": 6500, "unit": "nM"}, {"measurement": "IC50", "setting": "[2]", "value": 2.81, "unit": "nM"}, {"measurement": "IC50", "setting": "[3]", "value": 7.26, "unit": "nM"}, {"measurement": "IC50", "setting": "[4]", "value": 13.4, "unit": "nM"}, {"measurement": "IC50", "setting": "[5]", "value": 4.11, "unit": "nM"}]}
